One compound from patent publication US4139632A, “Psychotropic 2-trifluoromethyl-10-[3-(3-hydroxy-pyrrolidino)-propyl]-phenothiazine compounds” (Eisai Co., Ltd., priority 1975, dated 1979) can be followed below.

Type in all cases: in vivo
In assay [1] the test system is Mouse. The assay can be described thus: Inhibitory effect of spontaneous motor activity. The protocol:
(§1) Measurement of pharmacological activities are conducted in accordance with the procedures described in the following literatures:
1) Svensson, T. H. et al

Assay [2] has as its system Mouse. The assay can be described thus: Anti-methanphethamine activity (neuroleptic activity). The protocol: (§2) Measurement of pharmacological activities are conducted in accordance with the procedures described in the following literatures: […]
In assay [3] the test system is Mouse. Nature of the assay: Anti-writhing effect (analgetic activity). How it is done: as §1
Proc. Soc. […] Biol, & Med.,
(In general: In writhing tests, fewer writhes than in controls are read as antinociception.)

Assay [4] concerns Mouse. Nature of the assay: Anti-tremorine activity (anti-Parkinson activity). How it is done: as §2

As for `Cl.OC1CCN(CCCN2c3ccccc3Sc3ccc(C(F)(F)F)cc32)C1` (centres unmarked) [Compound A, 2-trifluoromethyl-10-[3-(3-hydroxy-pyrrolidino)-propyl]-phenothiazine hydrochloride], the “intensity of spontaneous motor activity inhibition relative to chlorpromazine” value in assay [1] (compared with chlorpromazine) is given as 4 - 9 times. The “inhibitory effect of spontaneous motor activity relative to fluphenazine” value in assay [1] (compared with fluphenazine) is listed as “about half of those of fluphenazine”. The “central nervous depressant activity relative to known compound a” value in assay [1] (overall statement from the table, compared with known compound a) was “more intense than that of the known compound a”. Also, the “intensity of anti-methanphethamine activity relative to chlorpromazine” value in assay [2] (compared with chlorpromazine) is 4 - 9 times. Besides, in assay [2] (compared with fluphenazine), the “anti-methanphethamine activity relative to fluphenazine” value is “about half of those of fluphenazine”. Further, in assay [2] (compared with known compound a), the “intensity of anti-methanphethamine (neuroleptic) activity relative to known compound a” value is recorded as 2-4 times. For the same compound, the “intensity of anti-writhing activity relative to chlorpromazine” value in assay [3] (compared with chlorpromazine) is 4 - 9 times. Further, in assay [3] (compared with fluphenazine), the “intensity of anti-writhing activity relative to fluphenazine” value is listed as 3 - 5 times. Further, the “intensity of anti-writhing (analgetic) activity relative to known compound a” value in assay [3] (compared with known compound a) is given as 2-4 times. The “anti-tremorine activity relative to chlorpromazine” value in assay [4] (compared with chlorpromazine) is reported as “almost equal to that of chlorpromazine”. Further, the “intensity of anti-tremorine (anti-Parkinson) activity relative to fluphenazine” value in assay [4] (compared with fluphenazine) is listed as 3 - 5 times.
